From patent publication US20030224036A1, “Hla class I a2 tumor associated antigen peptides and vaccine compositions” (priority 1999, published 2003)

Biological target: HLA-A*0202 (human)
Assay: competitive inhibition assay, purified HLA
Settings: remark: other sources report otherwise

IC50: 307 nM
Binder: HLYQGCQVV [Her2/neu.48]
